In ChEMBL document CHEMBL1949555, “Piperazine-2,3-dicarboxylic acid derivatives as dual antagonists of NMDA and GluK1-containing kainate receptors” (J Med Chem, 2012):

What was measured:
Rattus norvegicus [1] = organism: Rattus norvegicus; assay: Selectivity ratio of Ki(app) for rat recombinant GluN1/GluN2A receptor to Ki(app) for rat recombinant GluN1/GluN2D receptor
How it was run: (§1)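 Rat GluN1a is co-expressed with GluN2A, 2B, 2C or 2D in Xenopus oocytes and recorded by two-electrode voltage clamp at −60 mV. Buffer is 116 mM NaCl, 2 mM KCl, 0.3 mM BaCl2, 5 mM HEPES, pH 7.4. The plateau response to bath-applied 10 μM L-glutamate plus 10 μM glycine is measured. Apparent Ki is IC50/(1+[agonist]/EC50).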

[2] = test system: Kainate receptors (Rattus norvegicus); assay: Displacement of [3H]-Kainate from native kainate receptors in rat brain homogenate; conditions: concentration not given here
Rattus norvegicus [3] = organism: Rattus norvegicus; assay: Selectivity ratio of Ki(app) for rat recombinant GluN1/GluN2B receptor to Ki(app) for rat recombinant GluN1/GluN2D receptor; how it was run: as §1

| SMILES | Ratio Ki(app) (Rattus norvegicus [1]) | inhibition [2] [%] | Ratio Ki (Rattus norvegicus [3]) | Ratio Ki (Rattus norvegicus [1]) |
| --- | --- | --- | --- | --- |
| O=C(O)[C@H]1NCCN(C(=O)c2ccc(C#Cc3ccccc3)cc2)[C@H]1C(=O)O (relative stereo) | 10 | 10 |  |  |
| O=C(O)[C@H]1NCCN(C(=O)c2ccc3cc(-c4ccccc4)ccc3c2)[C@H]1C(=O)O (relative stereo) |  |  | > 10 | > 10 |
